Test: Conductivity (EPA method 120.1)
Assay type: physicochemical
Conditions: samples diluted with de-ionized water; Example materials 1% by volume in water

SMILES: O=S(=O)(O)O [Dilute sulfuric acid, sulfuric acid]
- Conductivity: 556 mS/cm

— patent US20250073259A1, “AQUEOUS ANTI MICROBIAL COMPOSITION USEFUL AS A THERAPEUTIC MATERIAL” (Tygrs, LLC, priority 2020, published 2025)
